Assay [1] addresses T1, ferroportin (Homo sapiens, UniProt Q9NP59).
T1 sequence (Q9NP59 1-571): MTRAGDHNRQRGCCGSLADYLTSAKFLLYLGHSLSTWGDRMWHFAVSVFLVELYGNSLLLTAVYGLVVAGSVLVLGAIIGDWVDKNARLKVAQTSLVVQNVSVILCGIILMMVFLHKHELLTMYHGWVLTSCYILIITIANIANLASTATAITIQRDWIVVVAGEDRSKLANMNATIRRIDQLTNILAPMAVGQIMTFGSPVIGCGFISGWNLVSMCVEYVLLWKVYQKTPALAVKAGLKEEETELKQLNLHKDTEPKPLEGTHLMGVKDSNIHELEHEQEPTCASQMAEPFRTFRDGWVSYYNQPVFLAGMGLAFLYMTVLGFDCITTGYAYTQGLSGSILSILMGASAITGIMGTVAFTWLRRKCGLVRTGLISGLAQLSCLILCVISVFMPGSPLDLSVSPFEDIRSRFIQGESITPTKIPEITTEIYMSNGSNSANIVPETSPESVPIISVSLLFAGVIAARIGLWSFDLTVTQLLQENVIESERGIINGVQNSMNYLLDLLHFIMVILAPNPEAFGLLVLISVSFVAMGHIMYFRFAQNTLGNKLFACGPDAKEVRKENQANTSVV
The assay is described as follows: FPN internalization assay (FPN activity assay), loss of ferroportin-GFP fluorescence. The format is cell-based.

The target in assay [2] is T1, ferroportin. The assay is described as follows: T47D internalization assay in presence of mouse serum albumin. Type of assay: cell-based. The settings on record: T47D cells, 0.5% mouse serum albumin, 1 hr incubation; for pIC50: read-out: IC50: T47D MSA; for IC50: IC50: T47D MSA (nM, Table 1D). More on the design: a human breast carcinoma adherent cell line which endogenously expresses ferroportin; host or cells: T47D. In short, it runs like this:
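Flow cytometry median fluorescence of live singlet cells gave IC50 via 4-parameter fit. Peptides in 0.5% MSA (30 min preincubation, 10 points from ~5 μM) were applied to T47D cells for 1 h, followed by a 2 h exposure to AF647 detection peptide at a fixed 200 nM.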

[3] abbreviates: Table 1D, HEK293 cells stably expressing ferroportin-GFP, compound at least 18 hours, read-out: IC50: FPN.

pIC50: −log10 of the molar value.

As to `CCCCCCCCCCCCCCCC(=O)NCC[N+](C)(C)CC(=O)NCCOCCOCC(=O)NCCOCCOCC(=O)NCCCC[C@H](NC(=O)[C@@H]1C[C@@H]2CN1C(=O)[C@H](C(c1ccccc1)c1ccccc1)NC(=O)[C@H](Cc1c[nH]cn1)NC(=O)[C@H]([C@@H](C)O)NC(=O)[C@@H](NC(=O)CC(C)C)CCCC(=O)N2)C(=O)NCCCCCc1ccccc1` [compound 113], the figures for the pIC50 in assay [1] (setting [3]) and in assay [2] (Table 1D) were 7.52 to 9.00 and 8.00 to 10.00, respectively.

In the case of `CCCCCCCCCCCCCCCC(=O)NCC[N+](C)(C)CC(=O)NCCOCCOCC(=O)NCCOCCOCC(=O)NCCCC[C@H](NC(=O)[C@@H]1CCCN1C(=O)[C@@H](NC(=O)[C@H](Cc1c[nH]cn1)NC(=O)[C@@H](NC(=O)[C@H](CCC(=O)O)NC(=O)CC(C)C)[C@@H](C)O)C(c1ccccc1)c1ccccc1)C(=O)NCCCCc1ccccc1` [compound 220], the pIC50 in assay [1] (setting [3]) is 7.52 to 9.00; in assay [2] (Table 1D), 8.00 to 10.00.

On to `CC(C)CC(=O)N[C@H]1CCC(=O)NCCCC[C@H](C(N)=O)NC(=O)[C@H](C(c2ccccc2)c2ccccc2)NC(=O)[C@H](CCCCNC(=O)[C@H](CN)NC(=O)CCCc2ccc(I)cc2)N(C)C(=O)[C@H](C2CCCCC2)NC(=O)[C@@H]2CCCN2C(=O)[C@H](C(c2ccccc2)c2ccccc2)NC(=O)[C@H](Cc2c[nH]cn2)NC(=O)[C@H]([C@@H](C)O)NC1=O` [compound 80], for which the pIC50 in assay [1] (setting [3]) is 7.00 to 7.52; in assay [2] (Table 1D), 7.00 to 8.00.

Consider `CCCCCCCCCCCCCCCC(=O)NCC[N+](C)(C)CC(=O)NCCOCCOCC(=O)NCCOCCOCC(=O)NCCCC[C@H](NC(=O)[C@@H]1CSSC[C@H](NC(=O)[C@H](CCC(=O)O)NC(=O)CC(C)C)C(=O)N[C@@H](Cc2c[nH]cn2)C(=O)N[C@@H](C(c2ccccc2)c2ccccc2)C(=O)N1C)C(=O)NCCCCc1ccccc1` [compound 210], for which the pIC50 was 7.00 to 7.52 in assay [1] (setting [3]) and 7.00 to 8.00 in assay [2] (Table 1D).

As for `COC(=O)CCC(CCCC(C)C)C(=O)N[C@H]1CSSC[C@@H](C(=O)N(C)[C@@H](CCCCN)C(=O)NCCCCc2ccccc2)NC(=O)[C@H](C(c2ccccc2)c2ccccc2)NC(=O)[C@H](Cc2c[nH]cn2)NC1=O` (some centres unmarked) [compound 176], the pIC50 in assay [1] (setting [3]) and in assay [2] (Table 1D) was less than 6.30 each time.

Turning to `CCCCCCCCCCCCCCCC(=O)N[C@@H](CN)C(=O)NCCOCCOCC(=O)NCCOCCOCC(=O)NCCCC[C@H](NC(=O)[C@@H]1CCCN1C(=O)[C@@H](NC(=O)[C@H](Cc1c[nH]cn1)NC(=O)[C@@H](NC(=O)[C@H](CCC(=O)O)NC(=O)CC(C)C)[C@@H](C)O)C(c1ccccc1)c1ccccc1)C(=O)NCC(c1ccccc1)c1ccccc1` [compound 27], the negative-log IC50 (pIC50) in assay [1] (Table 1C, HEK293 cells stably expressing ferroportin-GFP, compound at least 18 hours, read-out: IC50: FPN) is 7.52 to 9.00; in assay [2] (Table 1C) it was 8.00 to 10.00.

With `CC(C)CC(=O)N[C@@H](CCC(=O)O)C(=O)N[C@H](C(=O)N[C@@H](Cc1c[nH]cn1)C(=O)N[C@H](C(=O)N1CCC[C@H]1C(=O)N[C@H](C(=O)N(C)[C@@H](CCCCNC(=O)CCCc1ccc(I)cc1)C(=O)N[C@H](C(=O)N[C@H](CCCCN)C(N)=O)C(c1ccccc1)c1ccccc1)C1CCCCC1)C(c1ccccc1)c1ccccc1)[C@@H](C)O` [compound 79], the figures for the pIC50 in assay [1] (setting [3]) and in assay [2] (Table 1D) were 7.52 to 9.00 and 7.00 to 8.00, respectively.

As for `CC(C)CC(=O)N[C@@H](CCC(=O)O)C(=O)N[C@H]1CSSC[C@@H](C(=O)N[C@@H](CCCCNC(=O)COCCOCCNC(=O)COCCOCCNC(=O)[C@H](CN)NC(=O)CCCCCCCCCCCCCCCCC(=O)O)C(=O)NCCCCc2ccccc2)NC(=O)[C@H](C(c2ccccc2)c2ccccc2)NC(=O)[C@H](Cc2c[nH]cn2)NC1=O` [compound 192], the pIC50 in assay [1] (setting [3]) and in assay [2] (Table 1D) was less than 6.30 in each case.

`CCCCCCCCCCCCCCCC(=O)NCC[N+](C)(C)CC(=O)NCCOCCOCC(=O)NCCOCCOCC(=O)NCCCC[C@H](NC(=O)[C@@H]1C[C@@H]2CN1C(=O)[C@H](C(c1ccccc1)c1ccccc1)NC(=O)[C@H](Cc1c[nH]cn1)NC(=O)[C@@H](NC(=O)[C@H](CCC(=O)O)NC(=O)CC(C)C)CCC(=O)N2)C(=O)NCCCCc1ccccc1` [compound 190]: the pIC50 in assay [1] (setting [3]) is 7.00 to 7.52; in assay [2] (Table 1D), 6.30 to 7.00.

On to `CC(C)CC(=O)N[C@@H](CCC(=O)O)C(=O)N[C@H](C(=O)N[C@@H](Cc1c[nH]cn1)C(=O)N[C@H](C(=O)N1CCC[C@H]1C(=O)N[C@@H](CCCCNC(=O)COCCOCCNC(=O)COCCOCCNC(=O)CC[C@H](NC(=O)CC[C@@H](C)[C@H]1CC[C@H]2[C@@H]3CC[C@@H]4C[C@H](O)CC[C@]4(C)[C@H]3C[C@H](O)[C@]12C)C(=O)O)C(=O)NCCCCc1ccccc1)C(c1ccccc1)c1ccccc1)[C@@H](C)O` [compound 128], for which the pIC50 in assay [1] (setting [3]) was 7.52 to 9.00. Further, the IC50 in assay [2] lay in the range of 10 to 100 nM.

Consider `CC(C)CC(=O)N[C@@H](CCC(=O)O)C(=O)N[C@H](C(=O)N[C@@H](Cc1c[nH]cn1)C(=O)N[C@H](C(=O)N1CCC[C@H]1C(=O)N[C@@H](CCCCNC(=O)CCOCCOCCOCCOCCOCCOCCOCCOCCNC(=O)[C@H](CN)NC(=O)CCCc1ccc(I)cc1)C(=O)NCCCCCc1ccccc1)C(c1ccccc1)c1ccccc1)[C@@H](C)O` [compound 81], for which the pIC50 is 7.52 to 9.00 in assay [1] (setting [3]) and 7.00 to 8.00 in assay [2] (Table 1D).

For the compound `CC(C)CC(=O)N[C@@H](CCC(=O)O)C(=O)N[C@H](C(=O)N[C@@H](Cc1c[nH]cn1)C(=O)N[C@H](C(=O)N1CCC[C@H]1C(=O)N[C@H](CCCCN)C(=O)N(Cc1ccccc1)C(CCCCCCC(=O)O)C(=O)O)C(c1ccccc1)c1ccccc1)[C@@H](C)O` (some centres unmarked) [compound 148], the pIC50 in assay [1] is less than 6.30. The IC50 in assay [2] was more than 500 nM.

`CCCCCCCCCCCCCCCC(=O)NCC[N+](C)(C)CC(=O)NCCOCCOCC(=O)NCCOCCOCC(=O)NCCCC[C@H](NC(=O)[C@@H]1CCCN1C(=O)[C@@H](NC(=O)[C@H](Cc1c[nH]cn1)NC(=O)[C@@H](NC(=O)[C@H](CCC(=O)O)NC(=O)CC(C)C)[C@@H](C)O)C(c1ccccc1)c1ccccc1)C(=O)NCCc1nc2ccccc2[nH]1` [compound 123]: the pIC50 in assay [1] is 7.52 to 9.00. In addition, the IC50 in assay [2] is 0.1 to 10 nM.

For the compound `CCCCCCCCCCCCCCCC(=O)NCC[N+](C)(C)CC(=O)NCCOCCOCC(=O)NCCOCCOCC(=O)NCCCC[C@H](NC(=O)[C@@H]1CCCN1C(=O)[C@@H](NC(=O)[C@H](Cc1c[nH]cn1)NC(=O)[C@@H](NC(=O)[C@H](CCC(=O)O)NC(=O)CC(C)C)[C@@H](C)O)C(c1ccccc1)c1ccccc1)C(=O)NCCCc1ccc(F)cc1` [compound 104], in assay [1], the pIC50 is less than 6.30. Further, the IC50 in assay [2] was in the range of 0.1 to 10 nM.

In the case of `CCCCCCCCCCCCCCCC(=O)NCC[N+](C)(C)CC(=O)NCCOCCOCCOCCOCCC(=O)NCCCC[C@H](NC(=O)[C@@H]1CCCN1C(=O)[C@@H](NC(=O)[C@H](Cc1c[nH]cn1)NC(=O)[C@@H](NC(=O)[C@H](CCC(=O)O)NC(=O)CC(C)C)[C@@H](C)O)C(c1ccccc1)c1ccccc1)C(=O)NCCCCCc1ccccc1` [compound 116], the pIC50 in assay [1] (setting [3]) was 7.52 to 9.00; in assay [2] (Table 1D), 8.00 to 10.00.

Regarding `CC(C)CC(=O)N[C@@H](CCC(=O)O)C(=O)N[C@H](C(=O)N[C@@H](Cc1c[nH]cn1)C(=O)N[C@H](C(=O)N1CCC[C@H]1C(=O)N[C@H](CCCCN)C(=O)N(CC1CC1)C(CCc1ccccc1)C(=O)O)C(c1ccccc1)c1ccccc1)[C@@H](C)O` (some centres unmarked) [compound 152], the pIC50 in assay [1] (setting [3]) is 7.00 to 7.52; in assay [2] (Table 1D) it was less than 6.30.

The term pIC50 denotes the negative decadic logarithm of the IC50, by convention in mol/L. For orientation: IC50 means the point on the concentration scale where inhibition reaches its midpoint.

The values are drawn from patent US20250361280A1 (Protagonist Therapeutics, Inc., priority 2022, published 2025).
